Experimental data from patent US7598377B2, “Inhibition of phosphoinositide 3-kinase β” (AstraZeneca AB, priority 2002, dated 2009).

By UniProt entry, the sequences of proteins in these tests, tags left out. Where a name states a change or a piece, a line headed by the entry shows the natural chain unless it says otherwise.
UniProt P42338: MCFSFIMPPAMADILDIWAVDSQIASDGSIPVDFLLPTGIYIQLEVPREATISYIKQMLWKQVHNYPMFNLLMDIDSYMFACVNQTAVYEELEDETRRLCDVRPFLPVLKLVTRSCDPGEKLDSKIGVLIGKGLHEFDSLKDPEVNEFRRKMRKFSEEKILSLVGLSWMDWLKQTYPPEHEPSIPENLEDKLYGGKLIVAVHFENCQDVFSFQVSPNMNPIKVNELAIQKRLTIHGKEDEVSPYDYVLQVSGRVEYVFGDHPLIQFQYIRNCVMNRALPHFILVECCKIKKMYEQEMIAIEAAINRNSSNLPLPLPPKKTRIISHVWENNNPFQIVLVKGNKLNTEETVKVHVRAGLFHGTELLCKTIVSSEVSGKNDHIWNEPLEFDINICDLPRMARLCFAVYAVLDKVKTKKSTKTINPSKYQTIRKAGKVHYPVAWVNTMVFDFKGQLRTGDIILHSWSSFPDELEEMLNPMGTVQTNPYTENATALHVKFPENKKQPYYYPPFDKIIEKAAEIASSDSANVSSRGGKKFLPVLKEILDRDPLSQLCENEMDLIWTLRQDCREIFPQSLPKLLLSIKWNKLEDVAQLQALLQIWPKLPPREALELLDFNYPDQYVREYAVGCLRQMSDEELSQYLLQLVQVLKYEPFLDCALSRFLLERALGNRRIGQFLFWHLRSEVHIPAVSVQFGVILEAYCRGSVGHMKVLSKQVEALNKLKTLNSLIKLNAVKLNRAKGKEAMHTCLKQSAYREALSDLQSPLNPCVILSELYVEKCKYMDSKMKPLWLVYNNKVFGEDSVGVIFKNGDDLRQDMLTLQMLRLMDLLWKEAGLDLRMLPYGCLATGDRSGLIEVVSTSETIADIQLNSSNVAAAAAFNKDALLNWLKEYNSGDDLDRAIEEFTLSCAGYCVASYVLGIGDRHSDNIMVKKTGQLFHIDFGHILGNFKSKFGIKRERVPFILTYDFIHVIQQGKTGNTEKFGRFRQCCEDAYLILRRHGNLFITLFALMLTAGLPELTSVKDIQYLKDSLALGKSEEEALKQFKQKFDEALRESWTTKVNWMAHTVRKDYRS

Target: T1, p110β-PI3K (Homo sapiens, UniProt P42338)
T1 construct: The α and β isoforms of the PI3K were immunoprecipitated from a platelet lysate; from tissue; host or cells: washed platelets (lysate, immunoprecipitated with anti-p110β antibody)
Test: In vitro enzyme assay, p110β immunoprecipitated from platelet lysate (Biological Example 1)
Assay type: biochemical
Settings: read-out: IC50 against PI 3-kinase β
Protocol: To examine the inhibitory activity of TGX-221 against PI 3-kinase α, β or δ isoforms, or PI4 kinase, washed platelets were lysed with 1× lysis buffer (10 mM Tris, pH 7.6, 10 mM PMSF, 5 mM EDTA, 2 mM benzamidine, 0.1% Triton X-100) and whole cell lysates were clarified by centrifugation at 15,000×g for 5 minutes. For each immunoprecipitation, 1 mg of lysate was incubated with an anti-p110α (1 μg), anti-p110β (1 μg), anti-p110δ (1 μg) or anti-PI4 kinase antibody (2-5 μg) and 50 μl of a 50% slurry of protein A beads overnight at 4° C. For PI 3-kinase assays, the protein A beads-immune complexes were washed twice with lysis buffer and twice more with 1× PI 3-kinase assay buffer (20 mM Hepes, pH 7.2, 5 mM MgCl2, 0.25 mM EDTA) prior to incubating 25 μl of the immunoprecipitated p110 α or β isoforms with 40 μl of the PI 3-kinase substrate, phosphatidylinositol (PtdIns), 10 μl ATP mix (0.5 μl γ^32 P-ATP+0.5 μl 10 nM ATP), 10 μl 10× kinase buffer, 15 μl milliQ H2O and 1 μl of TGX-221 (0-10 μM) for 60 minutes at room temperature. […] The lipid spots were then removed from the TLC plate and the level of radioactivity quantified to accurately determine the level of PtdIns(3)P/PtdIns(4)P production.

IC50: 5 nM
Structure (SMILES): Cc1cc(C(C)Nc2ccccc2)c2nc(N3CCOCC3)cc(=O)n2c1 (racemic) [TGX-221, (±)-7-methyl-2-morpholin-4-yl-9-(1-phenylaminoethyl)-pyrido[1,2-a]pyrimidin-4-one]
